Results taken from PubChem BioAssay AID624466 (The Scripps Research Institute Molecular Screening Center, 2012).
Only a part is listed here, and it is no random draw. Active and inactive are the calls of the source.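 Rule for the calls: active = inhibition above a per-plate cutoff, the mean inhibition of test compounds on that plate plus 3 SD (cut at about 49% in these data); inactive = the rest.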

Sequences of proteins named here, by UniProt entry; tags and fusion partners are left off.
UniProt Q96RJ0, whole entry: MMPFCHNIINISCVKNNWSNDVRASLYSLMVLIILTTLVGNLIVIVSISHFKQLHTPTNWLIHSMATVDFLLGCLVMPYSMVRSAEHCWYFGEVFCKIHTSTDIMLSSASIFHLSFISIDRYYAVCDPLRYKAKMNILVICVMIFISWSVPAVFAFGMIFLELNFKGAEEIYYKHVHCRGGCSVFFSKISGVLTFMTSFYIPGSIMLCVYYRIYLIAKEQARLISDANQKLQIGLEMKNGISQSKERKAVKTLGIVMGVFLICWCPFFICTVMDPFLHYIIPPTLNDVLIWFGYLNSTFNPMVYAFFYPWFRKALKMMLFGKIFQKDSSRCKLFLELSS

target: Trace amine-associated receptor 1 (Homo sapiens) (UniProt Q96RJ0); assay: human TAAR1 antagonists, primary screen, Fluo-8 calcium fluorescence, CHO RD-HGA16 cells (AID 624466); conditions: CHO RD-HGA16 TAAR1, Fluo-8 calcium fluorescence, antagonist; at 3 µM; active compounds read high;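 note: 0% = DMSO plus EC80 beta-PEA response and 100% = DMSO alone without agonist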

Row | Compound | inhibition
1 | Fc1ccccc1NC1CCN(Cc2ccccc2)CC1 | inactive: -21.1%
2 | Cc1ccc(NC2(C#N)CCN(Cc3ccccc3)CC2)cc1 | inactive: -11.2%
3 | CC(=O)N(c1ccccc1)C1CCNCC1 | inactive: -11.4%
4 | COc1cccc(C(c2nnnn2C2CCCCC2)N2CCC(n3c(=O)[nH]c4ccccc43)CC2)c1OC (configuration not stated) | active: 60.8%
5 | CCC(c1nnnn1C1CCCCC1)N1CCC(n2c(=O)[nH]c3ccccc32)CC1 (configuration not stated) | inactive: -0.49%
6 | O=c1[nH]c2ccccc2n1C1CCN(C(c2ccnc3ccccc23)c2nnnn2C2CCCCC2)CC1 (configuration not stated) | active: 50.2%
7 | COc1cc(OC)cc(C(=O)NCC2(N3CCCCC3)CCCCC2)c1 | inactive: -3.15%
8 | O=C(NCC1(N2CCCCC2)CCCCC1)c1ccco1 | inactive: 5.04%
9 | Cn1c(=O)[nH]cc(N(CCCl)CCCl)c1=O | inactive: -11.3%
10 | CN(C)c1ccc(C(=O)NCC2(N3CCCCC3)CCCCC2)cc1 | inactive: -9.35%
11 | Cc1ccccc1NC1(C#N)CCN(Cc2ccccc2)CC1 | inactive: -9.4%
12 | CC(C)(C)n1nnnc1C(c1ccnc2ccccc12)N1CCC(n2c(=O)[nH]c3ccccc32)CC1 (configuration not stated) | inactive: 7.53%
13 | COc1ccc(C(c2nnnn2C2CCCCC2)N2CCC(n3c(=O)[nH]c4ccccc43)CC2)cc1 (configuration not stated) | inactive: 16.4%
14 | CCN1CCC(Nc2cccc(F)c2)CC1 | inactive: -3.23%
15 | CC(C)(C)OC(=O)N1CCC(Nc2ccccc2)CC1 | inactive: -1.03%
16 | NN(c1ccccc1)C1CCN(CCc2ccccc2)CC1 | inactive: 4.39%
17 | O=C(O)C1(Nc2ccccc2)CCN(Cc2ccccc2)CC1 | inactive: -8.96%
18 | CCCOc1ccc(C(=O)NCC2(N(C)C)CCCCC2)cc1 | inactive: -23.5%
19 | O=c1[nH]c2ccccc2n1C1CCN(C(c2cc3ccccc3o2)c2nnnn2C2CCCC2)CC1 (configuration not stated) | inactive: 35.4%
20 | CCOc1ncccc1C(=O)NCC1(N2CCOCC2)CCCCC1 | inactive: 7.28%
21 | CN1CCC(Nc2ccc(F)c(Cl)c2)CC1 | inactive: 6.79%
22 | CN1CCC(Nc2ccc(Cl)cc2)CC1 | inactive: -3.61%
23 | COc1cccc(C(=O)N(c2cc(C)cc(C)c2)C2CCN(C(=O)OC(C)(C)C)CC2)c1 | inactive: 0.6%
24 | COc1cccc(C(c2nnnn2C2CCCC2)N2CCC(n3c(=O)[nH]c4ccccc43)CC2)c1OC (configuration not stated) | active: 62.4%

Row | Compound | inhibition
25 | COc1cc(OC)cc(C(=O)NCC2(N3CCOCC3)CCCCC2)c1 | inactive: -5.35%
26 | CCC(CO)(C(=O)OC1CN2CCC1CC2)c1ccccc1 (configuration not stated) | inactive: -3.08%
27 | O=c1[nH]c2ccccc2n1C1CCN(C(c2cccs2)c2nnnn2C2CCCCC2)CC1 (configuration not stated) | active: 63.2%
28 | COc1ccc(C(=O)NCC2(N3CCOCC3)CCCCC2)cc1OC | inactive: 2.51%
29 | O=c1[nH]c2ccccc2n1C1CCN(C(c2ccnc3ccccc23)c2nnnn2C2CCCC2)CC1 (configuration not stated) | active: 51.9%
30 | CCCCn1nnnc1C(c1ccccc1)N1CCC(n2c(=O)[nH]c3ccccc32)CC1 (configuration not stated) | active: 70.2%
31 | COc1cc(C(=O)NCC2(N3CCOCC3)CCCCC2)cc(OC)c1C | inactive: -7.41%
32 | O=C(NCC1(N2CCOCC2)CCCCC1)c1cc(Br)ccc1Cl | inactive: -5.89%
33 | O=C(OC1CN2CCC1CC2)C1c2ccccc2C=Cc2ccccc21 (configuration not stated) | inactive: 8.99%
34 | O=c1[nH]c2ccccc2n1C1CCN(C(c2cccs2)c2nnnn2C2CCCC2)CC1 (configuration not stated) | active: 51.1%
35 | CCCCn1nnnc1C(c1cccc(OC)c1OC)N1CCC(n2c(=O)[nH]c3ccccc32)CC1 (configuration not stated) | active: 58.5%
36 | COc1cccc(C(c2nnnn2C(C)(C)C)N2CCC(n3c(=O)[nH]c4ccccc43)CC2)c1OC (configuration not stated) | inactive: 36.1%
37 | CCOC(=O)N1CCC(Nc2ccc(C)cc2)CC1 | inactive: -23.1%
38 | N/C(=N\O)c1c(N)no[n+]1[O-] | inactive: -0.16%
39 | N#Cc1ccc(C(=O)NCC2(N3CCCCC3)CCCCC2)cc1 | inactive: -4.6%
40 | CC(C)(C)OC(=O)N1CCC(N(C(=O)c2ccccc2)c2ccc(Cl)cc2)CC1 | inactive: -22.5%
41 | CC(C)(C)n1nnnc1C(c1cccc2ccccc12)N1CCC(n2c(=O)[nH]c3ccccc32)CC1 (configuration not stated) | inactive: 33.7%
42 | CN(C)C1(CNC(=O)c2cccc(C#N)c2)CCCCC1 | inactive: -20.5%
43 | c1ccc(CN2CCC(Nc3ccccc3)CC2)cc1 | inactive: 2.26%
44 | C/C(N)=N\P(=O)(Oc1ccccc1)Oc1ccccc1 | inactive: -6.75%
45 | O=c1[nH]c2ccccc2n1C1CCN(C(c2ccccc2)c2nnnn2C2CCCC2)CC1 (configuration not stated) | active: 54.4%
46 | CCCN1CCC(Nc2cc(OC)cc(OC)c2)CC1 | inactive: -19.3%
47 | Cc1cc(N(CCCl)CCCl)ccc1C=O | inactive: 7.11%
